Values of other authors as cited in patent US11752158B2, “Method of treating vitamin D insufficiency and deficiency” (priority 2007, dated 2023).

Conditions: other reports; =3800 IU; cited from earlier work

vitamin D
lowest dose at which an adverse effect is observed: 95 µg/day
